Protein sequences, listed by entry. Tags and fused reporters are not part of them. Residues count along the entry.
UniProt P23458, 866-1154 limits assumed: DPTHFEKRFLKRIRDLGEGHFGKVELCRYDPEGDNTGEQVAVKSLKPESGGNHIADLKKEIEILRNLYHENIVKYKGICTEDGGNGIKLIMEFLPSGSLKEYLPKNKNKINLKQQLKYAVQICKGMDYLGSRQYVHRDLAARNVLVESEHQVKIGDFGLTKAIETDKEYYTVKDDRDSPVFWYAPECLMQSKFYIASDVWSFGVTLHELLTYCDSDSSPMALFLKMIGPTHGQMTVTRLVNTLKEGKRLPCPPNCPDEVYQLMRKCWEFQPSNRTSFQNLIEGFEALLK

According to patent US12509463B2, “JAK inhibitor and preparation method therefor” (FELICAMED BIOTECHNOLOGY CO., LTD., priority 2019, dated 2025):

Legend:
Canine PBMC cells = assay: IL-2 and ConA induced proliferation of canine PBMC cells (flow cytometry, CD4+ population); settings: read-out: Cell IC50, CFSE stained, IL-2 and concanavalin A, 120 h, MFI of CD4+ population
JAK1 = JAK1 (Homo sapiens, UniProt P23458); assay: JAK1 enzymology experiment (HTRF KinEASE-TK); type: biochemical; settings: read-out: Relative IC50; JAK1 enzyme activity, 10 uM ATP, 19.76 nM JAk1, 30 min at 25° C., HTRF 665/615

IC50 (JAK1) [nM]	Structure (SMILES)	IC50 (Canine PBMC cells) [nM]
	CN(c1ncnc2[nH]ccc12)[C@H]1CC[C@H](C[S@@](=N)(=O)CC2CC2)CC1	> 5000
	CN=S(C)(=O)C[C@H]1CC[C@@H](N(C)c2ncnc3[nH]ccc23)CC1 (stereo partly shown)	< 1000
< 100	CN(c1ncnc2[nH]ccc12)[C@H]1CC[C@H](CS(C)(=N)=O)CC1 (stereo partly shown)	
	CN(c1ncnc2[nH]ccc12)[C@H]1CC[C@H](C[S@](=N)(=O)CC2CC2)CC1	> 5000
< 100	CN(c1ncnc2[nH]ccc12)[C@H]1CC[C@@H](CS(C)(=N)=O)CC1 (stereo partly shown)	< 1000
	CN=S(C)(=O)C[C@H]1CC[C@H](N(C)c2ncnc3[nH]ccc23)CC1 (stereo partly shown)	< 1000
